Laboratory results from PubChem BioAssay AID1224863 (Southern Research Institute, 2016).
The entries are a selection whose mix differs from that of the whole data set. Active and inactive are the calls of the source.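 Rule for the calls: active = highest signal at least 8 times that of the reference protease inhibitor control at some dose; inactive = the rest.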

Protein sequences, listed by entry. Tags and fused reporters are not part of them. Chains listed by the source or under a name are the forms on record and can include a tag or linker.
UniProt P13569, with tags, fused parts or gaps F508del: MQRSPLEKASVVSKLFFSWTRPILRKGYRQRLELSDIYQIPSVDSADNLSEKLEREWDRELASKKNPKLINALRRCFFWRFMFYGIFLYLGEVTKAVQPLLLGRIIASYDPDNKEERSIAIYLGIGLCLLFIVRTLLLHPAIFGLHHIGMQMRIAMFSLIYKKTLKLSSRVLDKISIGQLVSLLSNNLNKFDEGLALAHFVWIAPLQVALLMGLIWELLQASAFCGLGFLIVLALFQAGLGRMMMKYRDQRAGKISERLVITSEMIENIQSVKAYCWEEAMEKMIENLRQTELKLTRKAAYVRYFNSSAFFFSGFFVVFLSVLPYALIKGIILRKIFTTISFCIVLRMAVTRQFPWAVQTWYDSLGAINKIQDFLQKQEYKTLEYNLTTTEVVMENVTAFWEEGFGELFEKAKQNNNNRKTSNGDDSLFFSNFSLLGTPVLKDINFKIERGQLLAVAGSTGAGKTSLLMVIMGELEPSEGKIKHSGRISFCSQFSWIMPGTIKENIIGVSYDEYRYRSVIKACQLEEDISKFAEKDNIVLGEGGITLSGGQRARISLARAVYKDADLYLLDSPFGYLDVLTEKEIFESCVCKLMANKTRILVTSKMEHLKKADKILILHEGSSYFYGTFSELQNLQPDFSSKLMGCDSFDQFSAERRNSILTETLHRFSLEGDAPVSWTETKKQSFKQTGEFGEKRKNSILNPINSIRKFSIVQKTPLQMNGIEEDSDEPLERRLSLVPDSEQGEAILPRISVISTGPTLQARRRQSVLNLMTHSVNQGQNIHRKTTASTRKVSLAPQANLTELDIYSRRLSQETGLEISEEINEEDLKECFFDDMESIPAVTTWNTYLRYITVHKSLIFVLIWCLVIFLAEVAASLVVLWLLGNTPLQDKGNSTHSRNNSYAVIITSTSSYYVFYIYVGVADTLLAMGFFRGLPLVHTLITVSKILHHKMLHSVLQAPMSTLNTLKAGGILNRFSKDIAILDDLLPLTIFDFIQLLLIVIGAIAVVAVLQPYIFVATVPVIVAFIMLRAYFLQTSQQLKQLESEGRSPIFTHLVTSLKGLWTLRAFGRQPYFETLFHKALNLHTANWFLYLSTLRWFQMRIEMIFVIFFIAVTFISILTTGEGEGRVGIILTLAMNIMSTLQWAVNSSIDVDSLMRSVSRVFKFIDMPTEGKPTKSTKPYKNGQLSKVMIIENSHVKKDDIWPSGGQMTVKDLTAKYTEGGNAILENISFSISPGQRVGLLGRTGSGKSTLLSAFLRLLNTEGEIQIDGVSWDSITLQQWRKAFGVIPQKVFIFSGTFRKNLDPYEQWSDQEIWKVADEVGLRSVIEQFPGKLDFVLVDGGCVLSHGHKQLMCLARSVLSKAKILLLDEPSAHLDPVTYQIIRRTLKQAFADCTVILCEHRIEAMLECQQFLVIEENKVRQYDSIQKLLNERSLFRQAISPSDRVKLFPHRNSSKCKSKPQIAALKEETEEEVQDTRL

biological target: Cystic fibrosis transmembrane conductance regulator (Homo sapiens) (UniProt P13569); assay: compounds raising F508del-CFTR protein level – cell-based, HeLa F508del-CFTR, immunofluorescence, viability, primary screen (AID 1224863); conditions: immunofluorescence total CFTR, 24 h, library dosed in µg/mL

SMILES	outcome
CC(C)(C)n1nc(C(=O)NCC2(N3CCOCC3)CCCCC2)cc1C1CC1	inactive
Cc1cc(C(=O)NCC2(N3CCOCC3)CCCCC2)c(C)o1	inactive
